The sample as a whole holds a higher share of hits than the screen did.
HCMV NEC inh: inhibitors of HCMV UL50-UL53 nuclear egress complex interaction; inhibition, % (test concentration not listed); HTRF UL50-UL53 interaction, normalized percent inhibition; 0.15% of 190,000 active; in the data active means inhibition above about 27%, passing the limit was not always enough
GIV-Gai inh: blocks GIV peptide binding to rat Galpha-i3. P08753. Galpha-i3/FITC-GIV peptide fluorescence polarization, 90 min; hits give low values; scaled: aluminum fluoride 0%, vehicle 100%. percent of control (FP), % (concentration not given with the values). actives 0.42% (n = 210,000). AID 1224905;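 active = replicate mean at 85% of control or lower, very high polarization wells dropped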;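 also: wells of about 15 µL received 100 nL stock; the first replicate is given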
Starred values were filed as active, the others as inactive; / = no result.

(1) Nc1cccc(-c2ncon2)c1
(2) Nc1cccc(-c2cnco2)c1
(3) COc1ccc(OC)c(NC(=O)c2sc3ncn(CC(=O)Nc4ccc(C)c(Cl)c4)c(=O)c3c2C)c1
(4) CN(C)S(=O)(=O)c1cccc(CSc2nnc(-c3ccccc3Cl)n2C)c1
(5) CCOC(=O)C1CCCN(Cc2ccc(CC)cc2)C1 (stereo not drawn)
(6) Cn1c(=O)c2nc3ccc(NC(=O)c4ccccc4)cc3nc2n(C)c1=O
(7) Cn1c(=O)c2nc3ccc(N)cc3nc2n(C)c1=O
(8) CCc1cc2c(=O)n(Cc3ccccc3)c(SCc3c(C)noc3C)nc2s1
entry no.	1	2	3	4	5	6	7	8
GIV-Gai inh	106	105	102	/	101	110	19*	/
HCMV NEC inh	83*	4	/	-3	-6	/	/	-26

(9) Cc1noc(C)c1CSc1nc2c(sc3ncccc32)c(=O)n1CC(C)C
(10) CCN(CC)c1ccc2cc(-c3nc4ccccc4c(=O)[nH]3)c(=N)oc2c1
(11) CCN(CC)c1ccc2cc(-c3c(O)c4ccccc4[nH]c3=O)c(=O)oc2c1
(12) CCN(CC)c1ccc2cc(C(=O)Nc3ccc(C)cc3)c(=N)oc2c1
(13) CCN(CC)c1ccc2cc(C(=O)Nc3ccccc3)c(=N)oc2c1
(14) CCSc1nc2sc3c(c2c(=O)n1-c1ccc(C)cc1)CC(C)(C)OC3
(15) CN(C)c1ccc(/C=c2\sc3n(c2=O)C(c2ccccc2)C(c2ccccc2)=NN=3)cc1 (stereo not drawn)
(16) Cc1cc(=O)n(Cc2ccccc2)c(=O)n1Cc1ccccc1
entry no.	9	10	11	12	13	14	15	16
GIV-Gai inh	97	8.2*	/	136	73*	94	123	100
HCMV NEC inh	38*	-9	-9	-18	/	2	/	-23

(17) Cc1nc2cc3ccccc3cc2c(=O)[nH]1
(18) Cc1ccccc1Nc1cc2ccccc2c(=O)[nH]1
(19) CCNCc1c(C(=O)O)c(C)n(Cc2ccc(Cl)cc2)c1C
(20) N#Cc1c(N)nc(SCC(=O)c2ccccc2)c(C#N)c1-c1ccc(O)cc1
(21) N#Cc1c(N)nc(SCC(=O)c2ccc(Br)cc2)c(C#N)c1-c1ccc(O)cc1
(22) COc1ccc(C(=O)Nc2ccc3c(c2)nc(CCc2ccccc2)n3C)c(OC)c1
(23) COc1ccc2c(c1)CC/C(=C\c1cccn1C)C2=O
(24) Cn1cccc1/C=C1\CCC/C(=C\c2cccn2C)C1=O
entry no.	17	18	19	20	21	22	23	24
GIV-Gai inh	108	88	114	100	97	105	101	-88*
HCMV NEC inh	-68	58*	7	30*	9	-10	-50	-78

(25) CCN(CC)c1ccc(/C=C2\N=C(SC)SC2=O)cc1
(26) CSC1=N/C(=C\c2ccccc2)C(=O)S1
(27) COc1cccc(NS(=O)(=O)c2ccc3c(c2)NC(=O)C(CC(=O)N2CCCC2)CS3)c1 (stereo not drawn)
(28) CCOC(=O)c1c(/N=C/C2C(=O)NC(=S)NC2=O)sc2c1CCCCC2
(29) C=CC(=O)Nc1sc2c(c1C(=O)OCC)CCCC2
(30) COCCn1c(C)cc(/C=C(\C#N)C(=O)OCc2cc(=O)n3c(n2)sc2ccccc23)c1C
(31) CCCc1ccc(S(=O)(=O)Nc2ccc3nc(S(=O)(=O)CC)sc3c2)cc1
(32) CCOC(=O)C1=C(O)c2ccccc2C1=O
entry no.	25	26	27	28	29	30	31	32
GIV-Gai inh	-78*	107	101	-21*	/	/	107	101
HCMV NEC inh	-30	-19	/	/	-4	-17	/	/

(33) CCOC(=O)c1c2c(n3ccccc13)C(=O)c1ccccc1C2=O
(34) C=CCn1c(=O)/c(=C2/Sc3ccccc3N2CC)s/c1=C1\SC(=S)N(C)C1=O
(35) C=CCn1c(=O)/c(=C2/Sc3ccc(OC)cc3N2CC)s/c1=C1\SC(=S)N(CCCC)C1=O
(36) C1=C(c2ccc3c(c2)OCO3)Nc2ncnn2C1c1cccs1 (stereo not drawn)
(37) CN(C)c1ccc(C2C=C(c3ccccc3)Nc3ncnn32)cc1 (stereo not drawn)
(38) C1=C(c2ccccc2)Nc2ncnn2C1c1ccc2c(c1)OCO2 (stereo not drawn)
(39) C1=C(c2ccccc2)Nc2ncnn2C1c1cccs1 (stereo not drawn)
(40) CN(C)C(CNC(=O)C1(c2ccccc2)CC1)c1ccco1 (stereo not drawn)
entry no.	33	34	35	36	37	38	39	40
GIV-Gai inh	-42*	331	42*	-22*	134	103	-24*	/
HCMV NEC inh	/	/	/	/	/	-30	/	0

4 records picked at random from the list so far:
(40) CN(C)C(CNC(=O)C1(c2ccccc2)CC1)c1ccco1 (stereo not drawn)
(20) N#Cc1c(N)nc(SCC(=O)c2ccccc2)c(C#N)c1-c1ccc(O)cc1
(21) N#Cc1c(N)nc(SCC(=O)c2ccc(Br)cc2)c(C#N)c1-c1ccc(O)cc1
(18) Cc1ccccc1Nc1cc2ccccc2c(=O)[nH]1
entry no.	40	20	21	18
GIV-Gai inh	/	100	97	88
HCMV NEC inh	0	30*	9	58*

The list goes on.
(41) COc1ccccc1Cn1c(=S)[nH]c2cc(C(=O)NCCc3ccc(OC)c(OC)c3)ccc2c1=O
(42) CCN(CC)c1ncc(C(=O)O)cc1NS(=O)(=O)c1ccc(Br)cc1
(43) CCCCN(CC)c1ncc(C(=O)O)cc1NS(=O)(=O)c1ccc(Br)cc1
(44) Cc1[nH]c2ccccc2c1C(c1ccccn1)N1CCCCC1 (stereo not drawn)
(45) CCCn1c(/N=C/c2ccccc2Cl)nc2ccccc21
(46) CCn1c(/N=C/c2ccccc2Cl)nc2ccccc21
(47) COC(=O)c1sccc1NC(=O)CC#N
(48) O=C1/C(=C\c2ccc(Br)o2)CC/C1=C/c1ccc(Br)o1
entry no.	41	42	43	44	45	46	47	48
GIV-Gai inh	104	85*	108	/	/	104	111	281
HCMV NEC inh	/	-4	-2	1	13	72*	12	/

(49) O=C1/C(=C/c2cc3ccccc3o2)CC/C1=C\c1cc2ccccc2o1
(50) Cc1c(C(=O)Nc2cc(Cl)ccc2-n2cncn2)[nH]c2c1C(=O)CC(C)(C)C2
(51) COc1ccc(-c2noc(CSCC(=O)NC3CC3)n2)cc1
(52) CCn1c(C(Cc2ccccc2)NC(=O)C(C)(C)C)nc2ccccc21 (stereo not drawn)
(53) CCSc1nnc(-c2nn(C)c3c2CN(S(=O)(=O)c2ccc(C)c(F)c2)CC3)n1CC
(54) COc1ccc(N(/C=C2\Sc3ccccc3C2=O)C(=O)c2ccco2)cc1
(55) COc1ccc(N(C=O)/C=C2\Sc3ccccc3C2=O)cc1
(56) O=C1NC(=O)C(=Cc2ccc(-c3ccccc3)o2)C(=O)N1
entry no.	49	50	51	52	53	54	55	56
GIV-Gai inh	-5.9*	/	106	/	104	184	-15*	93
HCMV NEC inh	/	7	-32	-17	/	-32	-34	/

(57) CC(C=C1C(=O)NC(=O)NC1=O)c1ccccc1 (stereo not drawn)
(58) CCOc1cc(C=C2C(=O)NC(=S)NC2=O)ccc1OCc1ccccc1Cl
(59) O=C1NC(=O)C(=Cc2cc(Br)ccc2OCc2ccccc2)C(=O)N1
(60) CCOC(=O)COc1ccc(Br)cc1C=C1C(=O)NC(=O)NC1=O
(61) CN1C(=O)C(=Cc2cc(Br)ccc2OCc2ccccc2)C(=O)N(C)C1=O
(62) Cc1ccc(OCCOc2ccc(Br)cc2C=C2C(=O)NC(=S)NC2=O)cc1
(63) O=C1NC(=S)NC(=O)C1=Cc1ccc(OCc2ccccc2)c(Br)c1
(64) O=C(c1cccc(N2C(=O)C3C4C=CC(C4)C3C2=O)c1)N1CC=C(c2ccccc2)CC1 (stereo not drawn)
entry no.	57	58	59	60	61	62	63	64
GIV-Gai inh	113	105	106	97	105	95	99	105
HCMV NEC inh	62*	-11	89*	57*	-3	-25	66*	/

(65) COc1ccc(N=Cc2cccn2-c2ccc(Br)cc2)cn1
(66) CCCN(CC(=O)Nc1ccc(F)c(F)c1F)Cc1c(C(=O)OCC)oc2ccccc12
(67) Cc1ccc(C)c(CNc2ccc3[nH]ncc3c2)c1
(68) COc1ccc(CNc2ccc3cn[nH]c3c2)c(OC)c1C
(69) CCCCCN1/C(=C\C=C\c2n(CCCC)c3cc(Cl)c(Cl)cc3[n+]2CCCCC)N(CCCC)c2cc(Cl)c(Cl)cc21
(70) CCCCCCC(CC[n+]1c(/C=C/C=C2N(CC)c3cc(Cl)c(Cl)cc3N2CC)n(CC)c2cc(Cl)c(Cl)cc21)S(=O)(=O)[O-] (stereo not drawn)
(71) O=C(CSc1ncnc2c1oc1ccccc12)NC1CCCCC1
(72) O=C(CSc1ncnc2c1oc1ccccc12)NCc1ccccc1
(73) N#Cc1cccc(NC(=O)CC(NC(N)=O)c2ccccc2Cl)c1 (stereo not drawn)
(74) CN(CCC#N)c1ccc(/C=C2\CC/C(=C\c3ccc(N(C)CCC#N)cc3)C2=O)cc1
entry no.	65	66	67	68	69	70	71	72	73	74
GIV-Gai inh	/	/	110	101	-62*	109	/	/	/	-41*
HCMV NEC inh	-86	-7	-35	52*	/	/	62*	6	-5	-53

Bioassay records from PubChem BioAssay.
